We go through four compounds from patent US8487131B2 (Sanford-Burnham Medical Research Institute, priority 2009, dated 2013).

Amino acid sequences for entries named in this document (tags omitted).
UniProt Q07820, whole entry: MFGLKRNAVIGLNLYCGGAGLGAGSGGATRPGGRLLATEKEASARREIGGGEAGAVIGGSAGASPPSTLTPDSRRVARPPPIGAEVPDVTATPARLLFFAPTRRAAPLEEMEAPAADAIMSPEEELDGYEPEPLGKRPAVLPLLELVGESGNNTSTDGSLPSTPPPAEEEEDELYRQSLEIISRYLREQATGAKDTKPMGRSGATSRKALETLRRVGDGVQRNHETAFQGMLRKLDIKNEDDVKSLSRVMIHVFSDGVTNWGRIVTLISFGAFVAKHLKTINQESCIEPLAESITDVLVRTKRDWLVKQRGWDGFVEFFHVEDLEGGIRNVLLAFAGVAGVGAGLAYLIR
UniProt Q07817, whole entry: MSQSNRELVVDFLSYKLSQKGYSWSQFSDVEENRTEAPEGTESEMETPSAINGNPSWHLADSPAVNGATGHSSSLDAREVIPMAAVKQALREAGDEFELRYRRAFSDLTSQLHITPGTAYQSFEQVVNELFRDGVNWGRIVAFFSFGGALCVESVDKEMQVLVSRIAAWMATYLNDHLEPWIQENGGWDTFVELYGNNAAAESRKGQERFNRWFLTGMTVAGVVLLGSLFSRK

For data set [1] the following is noted: rat. From the text: Next, we examined the pharmacological properties of the isomers as chirality could greatly affect such properties due to stereoselective metabolism. To test the pharmacological properties of diastereoisomers 11-14, we determined their in vitro rat plasma stability, rat microsomal stability, and cell membrane permeability (Table 4).
The next data set concerns the target Mcl-1 (Homo sapiens, UniProt Q07820). The data set can be described thus: Competitive fluorescence polarization assay (FPA), Mcl-1. In kind it is binding. Particulars: FITC-Bim BH3 peptide displacement. On the procedure:
A Bak BH3 peptide (F-BakBH3) ([…]) was labeled at the N-terminus with fluorescein isothiocyanate (FITC) (Molecular Probes) and purified by HPLC. […] The wild-type and mutant Bak BH3 peptides were included in each assay plate as positive and negative controls, respectively. […] IC50 was determined by fitting the experimental data to a sigmoidal dose-response nonlinear regression model (SigmaPlot 10.0.1, Systat Software, Inc., San Jose, Calif., USA). Data reported are mean of three independent experiments±standard error (SE). […] Fluorescence polarization was measured after 10 min.

For a further data set, the target named is Bcl-XL (Homo sapiens, UniProt Q07817). The data set can be described thus: Isothermal Titration Calorimetry assay (ITC). In kind it is binding. (In general: Isothermal titration calorimetry measures the heat released or taken up as one component is titrated into another.)

By IC50 is commonly meant the concentration at which inhibition is half-maximal. By Kd is commonly meant a measure of binding affinity in units of concentration. High values mean a looser complex, low ones a tighter complex.

For `Cc1cc2c(C(=O)NC[C@@H](C)c3ccccc3)c(O)c(O)cc2c(O)c1-c1c(C)cc2c(C(=O)NC[C@H](C)c3ccccc3)c(O)c(O)cc2c1O` (atropisomer, axis not shown) [Compound 11], in data set [1], the “Microsomal Stability (T = 40 min)” value was found to be 89.6 ± 7.0%.
`Cc1cc2c(C(=O)NCC(C)c3ccccc3)c(O)c(O)cc2c(O)c1-c1c(C)cc2c(C(=O)NCC(C)c3ccccc3)c(O)c(O)cc2c1O` (single isomer, unassigned) [Compound 12] had an IC50 on Mcl-1 of 0.18 µM. The “Microsomal Stability (T = 40 min)” value in data set [1] is listed as 83.4 ± 8.1%.
Compound `Cc1cc2c(C(=O)NCC(C)c3ccccc3)c(O)c(O)cc2c(O)c1-c1c(C)cc2c(C(=O)NCC(C)c3ccccc3)c(O)c(O)cc2c1O` (single isomer, unassigned) [Compound 13] came in with an IC50 at Mcl-1 of 0.24 µM. Further, the “Microsomal Stability (T = 40 min)” value in data set [1] was determined as 86.3 ± 7.0%. This compound returned a Kd at Bcl-XL of 0.4 µM.
At Mcl-1, `Cc1cc2c(C(=O)NCC(C)c3ccccc3)c(O)c(O)cc2c(O)c1-c1c(C)cc2c(C(=O)NCC(C)c3ccccc3)c(O)c(O)cc2c1O` (single isomer, unassigned) [Compound 14] returned an IC50 of 0.24 µM. Besides, in data set [1], the “Microsomal Stability (T = 40 min)” value amounted to 91.6 ± 1.6%. The Kd at Bcl-XL came out at 2 µM.
